Results as given in paper PMC5934274 (Journal of medicinal chemistry, 2016).

Biological target: T1, PARP10 (Homo sapiens, UniProt Q53GL7)
T1 sequence (Q53GL7 1-1025): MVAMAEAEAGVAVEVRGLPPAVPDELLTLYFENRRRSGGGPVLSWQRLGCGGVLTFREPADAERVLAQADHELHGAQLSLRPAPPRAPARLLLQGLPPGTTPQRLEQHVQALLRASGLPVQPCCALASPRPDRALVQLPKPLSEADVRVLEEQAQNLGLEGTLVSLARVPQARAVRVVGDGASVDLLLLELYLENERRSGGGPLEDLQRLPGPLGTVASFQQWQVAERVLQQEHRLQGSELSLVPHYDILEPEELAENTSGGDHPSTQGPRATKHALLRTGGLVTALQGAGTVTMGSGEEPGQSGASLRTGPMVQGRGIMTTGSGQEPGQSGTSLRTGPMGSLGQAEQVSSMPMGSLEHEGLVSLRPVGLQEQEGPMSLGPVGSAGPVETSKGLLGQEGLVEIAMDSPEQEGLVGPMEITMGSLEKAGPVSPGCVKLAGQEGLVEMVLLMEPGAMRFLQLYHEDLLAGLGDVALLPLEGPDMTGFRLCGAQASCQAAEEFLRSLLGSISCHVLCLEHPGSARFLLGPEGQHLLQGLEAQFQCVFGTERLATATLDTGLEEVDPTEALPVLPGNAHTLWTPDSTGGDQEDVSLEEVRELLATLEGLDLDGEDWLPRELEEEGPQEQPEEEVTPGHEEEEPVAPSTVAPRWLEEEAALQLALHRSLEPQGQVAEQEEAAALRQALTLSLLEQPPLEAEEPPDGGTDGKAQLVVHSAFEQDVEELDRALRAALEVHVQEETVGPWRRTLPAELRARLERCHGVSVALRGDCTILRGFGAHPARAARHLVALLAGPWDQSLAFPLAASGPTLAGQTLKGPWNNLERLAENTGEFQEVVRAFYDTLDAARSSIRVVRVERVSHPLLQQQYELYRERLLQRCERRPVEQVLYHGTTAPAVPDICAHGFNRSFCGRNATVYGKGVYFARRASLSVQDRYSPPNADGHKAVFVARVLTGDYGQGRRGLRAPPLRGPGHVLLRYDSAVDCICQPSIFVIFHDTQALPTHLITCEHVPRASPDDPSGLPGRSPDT
Experiment: In vitro ADP-ribosylation assay, PARP10
Type: biochemical
Conditions: PARP10 FL (full length)

With C[C@]1(c2nc3c(C(N)=O)cccc3[nH]2)CCCN1 [Veliparib] the IC50 was 1900 nM and the pIC50 was 5.72±0.15.
